Test results as given in ChEMBL document CHEMBL6134771, “Ligand-centred phenotype-driven development of potent kinase inhibitors against oesophageal cancer” (RSC Med Chem, 2025).

How the values were obtained:
CP-A = experiment: Antiproliferative activity against human CP-A cells assessed as reduction in cell viability at 0.003 to 30 uM measured after 5 days by PrestoBlue reagent based fluorescence analysis; assay type: functional; settings: dose 0.003-30 µM, time 5.0 day
EPC-2 = experiment: Antiproliferative activity against human EPC-2 cells assessed as reduction in cell viability at 0.003 to 30 uM measured after 5 days by PrestoBlue reagent based fluorescence analysis; assay type: functional; settings: dose 0.003-30 µM, time 5.0 day

Compound: CNc1ncc2c(/C=C/C(=O)N3CCC(OC)CC3)nn(Cc3cccc(C(F)(F)F)c3)c2n1
- Activity (CP-A): Active
- Activity (EPC-2): Active

The source made the active and inactive calls. The calls are words filed in the database; no cut-off is given here.
